From patent publication US20210179655A1, “Prodrugs of a JAK Inhibitor Compound for Treatment of Gastrointestinal Inflammatory Disease” (THERAVANCE BIOPHARMA R&D IP, LLC, priority 2015, published 2021)

System: splenic NK cells
Assay: Immunosuppression effects in mouse splenic natural killer (NK) cells
Assay type: in vivo
Conditions: 10, 30 and 60 mg/kg; PO, TID; three days, naïve mice

C[C@@H]1CCN(C(=O)CC#N)C[C@@H]1N(C)c1ncnc2[nH]ccc12 [Tofacitinib, 3-((3R,4R)-4-methyl-3-(methyl(7H-pyrrolo[2,3-d]pyrimidin-4-yl)amino)piperidin-1-yl)-3-oxopropanenitrile, reference compound]
splenic NK cell counts: dose-dependently and significantly decreased
